This is a selection; strong and weak results do not stand in their true shares. Results filed as inconclusive are left out. Some structures show a salt or complex split into parts, the way the source records it. Active and inactive are the calls of the source. The call rests on the fitted dose curve; in most records, active means well fitted cell-killing curve with a large enough effect; inconclusive means small, poorly fitted or top-dose-only effect, or effect the other way, or another doubt; inactive means no such curve, though single readings can be large or run the other way.
Assay: qHTS for induction of synthetic lethality in tumor cells producing 2HG: qHTS for the HT-1080-IDH1KD cell line;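 further: 0% = DMSO wells and -100% = cell-free medium wells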
Conditions: HT-1080 IDH1 knockdown viability, ATP luminescence, 48 h; at 46.1 µM (top of the series)

| Structure (SMILES) | activity, negative = toxicity |
| --- | --- |
| O=[N+]([O-])c1cc([N+](=O)[O-])c(OC2CCCCC2O)c([N+](=O)[O-])c1 (configuration not stated) | inactive: 10.5% |
| CCN(CC)CCCNc1ccccc1[N+](=O)[O-].O=[N+]([O-])c1cc([N+](=O)[O-])c(O)c([N+](=O)[O-])c1 | inactive: -17.1% |
| COc1ccc2c(c1O)-c1c(O)c(OC)cc3c1[C@H](C2)[N+](C)(C)CC3.O=[N+]([O-])c1cc([N+](=O)[O-])c([O-])c([N+](=O)[O-])c1[O-] | inactive: 6.56% |
| O=C(OC1CN2CCC1CC2)c1ccc([N+](=O)[O-])cc1 (configuration not stated) | inactive: 4.46% |
| O=C1C(O)=C([N+](=O)[O-])C(=O)C(O)=C1[N+](=O)[O-] | inactive: 10% |
| O=P1(N(CCCl)CCCl)SCCCS1 | inactive: 0.646% |
| Cc1ccc(Nc2c([N+](=O)[O-])cc([N+](=O)[O-])cc2[N+](=O)[O-])cc1 | inactive: -14.7% |
| Cn1c(=O)[nH]cc(N(CCCl)CCCl)c1=O | inactive: 4.36% |
| N/C(=N\O)c1c(N)no[n+]1[O-] | inactive: 19.8% |
| O=C(O)c1cccc(Nc2c([N+](=O)[O-])cc([N+](=O)[O-])cc2[N+](=O)[O-])c1 | inactive: -18.9% |
| CCOC(=O)C(CC)C1=NC(C)(C)Cc2ccccc21.O=[N+]([O-])c1cc([N+](=O)[O-])c(O)c([N+](=O)[O-])c1 (configuration not stated) | inactive: 17.1% |
| Cc1cc(N(CCCl)CCCl)ccc1C=O | inactive: -5.56% |

Source: PubChem BioAssay AID686971 (National Center for Advancing Translational Sciences (NCATS), 2013)
